Protein sequences, listed by entry. Tags and fused reporters are not part of them.
UniProt P35462, whole entry, looked up: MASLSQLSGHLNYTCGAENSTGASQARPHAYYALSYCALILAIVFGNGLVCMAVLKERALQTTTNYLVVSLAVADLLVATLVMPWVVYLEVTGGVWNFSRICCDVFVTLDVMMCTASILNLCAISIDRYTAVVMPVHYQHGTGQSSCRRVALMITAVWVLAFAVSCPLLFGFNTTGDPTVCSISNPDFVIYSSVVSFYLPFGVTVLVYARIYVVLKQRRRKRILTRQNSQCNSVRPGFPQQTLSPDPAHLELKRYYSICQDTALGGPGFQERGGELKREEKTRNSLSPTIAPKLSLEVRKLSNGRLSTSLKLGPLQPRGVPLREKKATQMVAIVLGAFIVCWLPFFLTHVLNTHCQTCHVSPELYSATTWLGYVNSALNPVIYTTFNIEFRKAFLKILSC
UniProt P14416, whole entry, looked up: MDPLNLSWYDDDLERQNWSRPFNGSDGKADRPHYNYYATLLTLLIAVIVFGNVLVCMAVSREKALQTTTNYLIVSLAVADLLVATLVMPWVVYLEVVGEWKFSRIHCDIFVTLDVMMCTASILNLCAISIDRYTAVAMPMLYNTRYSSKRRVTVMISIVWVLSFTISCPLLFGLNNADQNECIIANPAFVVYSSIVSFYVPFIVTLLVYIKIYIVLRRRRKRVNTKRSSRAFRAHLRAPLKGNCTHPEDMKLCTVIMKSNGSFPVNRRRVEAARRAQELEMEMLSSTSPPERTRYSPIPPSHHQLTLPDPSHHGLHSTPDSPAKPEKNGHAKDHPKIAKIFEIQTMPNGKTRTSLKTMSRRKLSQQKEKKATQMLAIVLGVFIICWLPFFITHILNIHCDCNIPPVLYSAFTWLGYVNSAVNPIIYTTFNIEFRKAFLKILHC
UniProt O88831, whole entry, looked up: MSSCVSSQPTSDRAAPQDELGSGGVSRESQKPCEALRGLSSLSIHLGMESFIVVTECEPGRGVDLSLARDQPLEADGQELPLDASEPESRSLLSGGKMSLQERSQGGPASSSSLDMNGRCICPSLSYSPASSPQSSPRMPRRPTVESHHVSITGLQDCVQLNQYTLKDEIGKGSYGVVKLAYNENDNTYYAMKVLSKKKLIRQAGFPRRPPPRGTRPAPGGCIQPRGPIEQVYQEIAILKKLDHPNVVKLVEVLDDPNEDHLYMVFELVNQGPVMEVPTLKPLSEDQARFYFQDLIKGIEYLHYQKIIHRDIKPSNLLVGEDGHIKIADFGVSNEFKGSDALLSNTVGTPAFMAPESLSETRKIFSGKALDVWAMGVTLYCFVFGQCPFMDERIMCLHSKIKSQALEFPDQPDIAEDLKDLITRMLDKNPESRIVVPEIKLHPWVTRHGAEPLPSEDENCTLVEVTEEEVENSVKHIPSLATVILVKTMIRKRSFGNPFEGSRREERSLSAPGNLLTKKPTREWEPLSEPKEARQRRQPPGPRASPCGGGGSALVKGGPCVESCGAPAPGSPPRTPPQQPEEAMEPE
UniProt P06213, whole entry, looked up: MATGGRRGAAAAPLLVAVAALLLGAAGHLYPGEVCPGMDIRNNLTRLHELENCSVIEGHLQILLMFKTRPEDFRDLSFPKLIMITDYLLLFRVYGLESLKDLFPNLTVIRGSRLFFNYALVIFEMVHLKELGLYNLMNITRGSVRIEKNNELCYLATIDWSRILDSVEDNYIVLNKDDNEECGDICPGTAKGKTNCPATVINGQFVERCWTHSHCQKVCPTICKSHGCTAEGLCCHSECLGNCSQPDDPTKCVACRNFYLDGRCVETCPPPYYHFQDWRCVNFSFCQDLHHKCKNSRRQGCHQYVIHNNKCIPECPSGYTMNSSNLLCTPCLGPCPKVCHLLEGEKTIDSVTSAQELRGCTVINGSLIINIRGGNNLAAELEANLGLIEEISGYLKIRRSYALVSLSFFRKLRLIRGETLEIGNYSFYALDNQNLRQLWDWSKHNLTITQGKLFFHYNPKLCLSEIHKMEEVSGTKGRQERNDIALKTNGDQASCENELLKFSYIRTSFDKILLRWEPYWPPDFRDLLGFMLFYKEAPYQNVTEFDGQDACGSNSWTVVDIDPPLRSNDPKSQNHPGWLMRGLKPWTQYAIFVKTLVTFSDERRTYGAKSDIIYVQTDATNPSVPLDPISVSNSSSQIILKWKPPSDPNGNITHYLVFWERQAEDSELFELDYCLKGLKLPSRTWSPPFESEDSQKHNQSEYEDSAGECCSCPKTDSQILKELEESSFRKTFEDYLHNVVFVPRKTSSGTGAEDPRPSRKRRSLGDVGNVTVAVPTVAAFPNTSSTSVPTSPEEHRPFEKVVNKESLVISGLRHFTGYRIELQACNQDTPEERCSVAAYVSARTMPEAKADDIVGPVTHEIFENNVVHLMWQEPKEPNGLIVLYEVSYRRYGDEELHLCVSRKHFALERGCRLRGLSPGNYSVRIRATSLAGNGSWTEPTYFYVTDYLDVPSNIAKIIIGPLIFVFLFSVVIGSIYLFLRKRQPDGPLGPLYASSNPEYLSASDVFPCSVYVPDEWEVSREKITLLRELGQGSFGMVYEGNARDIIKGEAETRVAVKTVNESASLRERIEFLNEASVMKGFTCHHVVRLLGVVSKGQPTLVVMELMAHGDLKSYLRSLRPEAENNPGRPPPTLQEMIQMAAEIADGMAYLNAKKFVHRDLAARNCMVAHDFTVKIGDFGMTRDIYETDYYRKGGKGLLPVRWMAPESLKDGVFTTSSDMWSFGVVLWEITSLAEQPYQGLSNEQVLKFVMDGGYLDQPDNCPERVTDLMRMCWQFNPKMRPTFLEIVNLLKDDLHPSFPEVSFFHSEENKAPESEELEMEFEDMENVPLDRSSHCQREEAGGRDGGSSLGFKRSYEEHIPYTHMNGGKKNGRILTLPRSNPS
UniProt P22086, whole entry, looked up: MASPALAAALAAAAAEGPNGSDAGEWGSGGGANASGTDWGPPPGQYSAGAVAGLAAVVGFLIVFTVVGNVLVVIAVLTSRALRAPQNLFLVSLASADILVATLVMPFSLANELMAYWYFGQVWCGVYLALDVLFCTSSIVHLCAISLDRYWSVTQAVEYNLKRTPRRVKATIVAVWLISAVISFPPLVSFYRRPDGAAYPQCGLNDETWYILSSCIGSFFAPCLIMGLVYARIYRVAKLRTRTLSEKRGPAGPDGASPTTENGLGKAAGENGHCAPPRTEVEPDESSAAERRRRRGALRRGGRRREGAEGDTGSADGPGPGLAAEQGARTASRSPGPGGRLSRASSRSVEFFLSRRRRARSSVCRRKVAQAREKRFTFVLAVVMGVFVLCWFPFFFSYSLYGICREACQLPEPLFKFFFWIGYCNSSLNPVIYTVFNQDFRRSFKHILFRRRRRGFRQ
UniProt P19328, whole entry, looked up: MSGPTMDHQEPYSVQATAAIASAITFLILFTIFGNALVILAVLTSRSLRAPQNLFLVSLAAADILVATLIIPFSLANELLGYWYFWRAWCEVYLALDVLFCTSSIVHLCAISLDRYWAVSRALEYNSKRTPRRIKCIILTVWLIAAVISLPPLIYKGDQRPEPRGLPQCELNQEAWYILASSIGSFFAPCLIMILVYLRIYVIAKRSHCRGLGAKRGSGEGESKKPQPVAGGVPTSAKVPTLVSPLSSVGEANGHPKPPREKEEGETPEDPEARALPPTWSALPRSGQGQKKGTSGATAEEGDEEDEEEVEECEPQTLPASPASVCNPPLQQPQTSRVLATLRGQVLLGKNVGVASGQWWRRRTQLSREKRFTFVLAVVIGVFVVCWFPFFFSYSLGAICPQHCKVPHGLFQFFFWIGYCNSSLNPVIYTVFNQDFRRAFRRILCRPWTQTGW
UniProt P22909, whole entry, looked up: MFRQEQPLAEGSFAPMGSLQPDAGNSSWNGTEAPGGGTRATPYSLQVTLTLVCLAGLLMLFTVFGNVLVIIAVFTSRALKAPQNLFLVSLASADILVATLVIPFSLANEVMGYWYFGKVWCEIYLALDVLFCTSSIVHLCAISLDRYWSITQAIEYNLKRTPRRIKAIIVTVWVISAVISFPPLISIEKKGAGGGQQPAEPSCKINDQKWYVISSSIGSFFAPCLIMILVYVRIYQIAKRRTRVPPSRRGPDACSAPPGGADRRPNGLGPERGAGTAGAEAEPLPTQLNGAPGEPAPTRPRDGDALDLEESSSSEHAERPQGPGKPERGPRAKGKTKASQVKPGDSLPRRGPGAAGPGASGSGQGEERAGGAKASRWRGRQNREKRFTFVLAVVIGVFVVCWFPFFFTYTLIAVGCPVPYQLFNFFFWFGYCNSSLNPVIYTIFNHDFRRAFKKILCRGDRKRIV

In ChEMBL document CHEMBL1800071, “Switching reversibility to irreversibility in glycogen synthase kinase 3 inhibitors: clues for specific design of new compounds” (J Med Chem, 2011):

Legend:
[1] = target: D(3) dopamine receptor (Homo sapiens) (UniProt P35462); assay: Displacement of [3H]spiperone form human recombinant D3 receptor expressed in CHO cells at 10 uM; format: cell-based
[2] = target: D(2) dopamine receptor (Homo sapiens) (UniProt P14416); assay: Displacement of [3H]spiperone form human recombinant D2 receptor expressed in CHO cells at 10 uM; format: cell-based
[3] = Inhibition of GSK3 in granule cerebellar neurons assessed as […] of tau phosphorylation at 25 uM after 16 hrs by Western blot analysis
Rattus norvegicus [4] = species: Rattus norvegicus; assay: Displacement of [3H]-CGP39653 from NMDA glutaminergic receptor in rat cerebral cortex at 10 uM; format: tissue-based
[5] = target: Calcium/calmodulin-dependent protein kinase kinase 2 (Rattus norvegicus) (UniProt O88831); assay: Inhibition of rat brain CAM kinase 2 using autocamtide as substrate and [gamma-33P] at 10 uM by scintillation counting
[6] = target: Insulin receptor (Homo sapiens) (UniProt P06213); assay: Inhibition of human recombinant IRK using poly GT as substrate and [gamma-33P]ATP at 10 uM by scintillation counting
[7] = target: Adrenergic receptor alpha-2 (Rattus norvegicus) (UniProt P22086+P19328+P22909); assay: Displacement of [3H]-RX821002 from adrenergic A2 receptor in rat cerebral cortex at 10 uM; format: tissue-based
[8] = target: Proto-oncogene tyrosine-protein kinase Src (Homo sapiens) (UniProt P12931); assay: Inhibition of Src kinase at 10 uM
Rattus norvegicus [9] = species: Rattus norvegicus; assay: Displacement of [3H]cytisine from alpha-BGTX-insensitive neuronal nicotinic receptor in rat cerebral cortex at 10 uM; format: tissue-based
[10] = Inhibition of protein kinase A at 100 uM
[11] = target: Epidermal growth factor receptor (Homo sapiens) (UniProt P00533); assay: Inhibition of EGFR kinase in human A431 cells using poly GAT as substrate and [gamma-33P]ATP at 10 uM by scintillation counting; format: cell-based; details: A-431
[12] = Inhibition of GSK3 in granule cerebellar neurons assessed as decrease of tau phosphorylation at Ser396 at 25 uM after 16 hrs by Western blot analysis
Bos taurus = species: Bos taurus; assay: Inhibition of bovine thymus protein kinase p56 using poly GT as substrate and [gamma-33P]ATP at 10 uM by scintillation counting
Rattus norvegicus [13] = species: Rattus norvegicus; assay: Displacement of [3H]serotonine from 5-HT receptor in rat cerebral cortex at 10 uM; format: tissue-based
Rattus norvegicus [14] = species: Rattus norvegicus; assay: Displacement of [3H]-AMPA from AMPA glutaminergic receptor in rat cerebral cortex at 10 uM; format: tissue-based

Compound	inhibition [1] [%]	inhibition [2] [%]	inhibition [3]	inhibition (Rattus norvegicus [4]) [%]	inhibition [5] [%]	inhibition [6] [%]	inhibition [7] [%]	inhibition [8] [%]	inhibition (Rattus norvegicus [9]) [%]	inhibition [10]	inhibition [11] [%]	inhibition [12]	inhibition (Bos taurus) [%]	inhibition (Rattus norvegicus [13]) [%]	inhibition (Rattus norvegicus [14]) [%]
Cc1ccc(C(=O)CBr)cc1	< 10	< 10	Active	< 10	15	< 10	10	69	< 10	inactive	10	Active	38	< 10	< 10
COc1ccc(C(=O)CBr)cc1			Active									Active			

Calls of active or inactive are those of the source. No cut-off for these calls is given here.
